The structures appear in SMILES notation. The list shows a part of the results, in another mix than the full data. Calls of active or inactive are those of the source. Cut-off read from the data, not from the text of the source: active = activation above about 40%; inconclusive = between about 15% and that limit; inactive = weaker than that.

Protein sequences, listed by entry. Tags and fused reporters are not part of them.
UniProt P14416, whole entry: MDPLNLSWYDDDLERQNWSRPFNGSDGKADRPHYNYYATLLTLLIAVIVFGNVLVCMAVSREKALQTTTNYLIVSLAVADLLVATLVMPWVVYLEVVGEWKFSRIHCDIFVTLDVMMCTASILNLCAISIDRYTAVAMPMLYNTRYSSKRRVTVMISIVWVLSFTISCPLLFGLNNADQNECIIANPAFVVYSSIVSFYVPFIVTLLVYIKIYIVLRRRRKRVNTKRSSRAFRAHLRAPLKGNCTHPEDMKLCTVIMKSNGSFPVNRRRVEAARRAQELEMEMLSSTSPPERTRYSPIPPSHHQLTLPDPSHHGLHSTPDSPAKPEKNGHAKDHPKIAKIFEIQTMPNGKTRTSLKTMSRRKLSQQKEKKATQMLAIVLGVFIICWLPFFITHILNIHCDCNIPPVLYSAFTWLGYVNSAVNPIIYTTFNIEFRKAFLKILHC

The test deals with D(2) dopamine receptor (Homo sapiens) (UniProt P14416). Kind of test: Beta-Arrestin HTS for Positive Allosteric Modulators of the Human D2 Dopamine Receptor: Agonists. The conditions noted are these: DiscoveRx PathHunter D2 beta-arrestin, luminescence, 90 min; hits give high values; 100% = 57 uM dopamine signal. An outline of the steps:
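DiscoveRx PathHunter D2 beta-arrestin cells (2,100/well) attached overnight, then compound-stimulated 90 min at 37 C in HBSS/10 mM HEPES/0.1% Tween-20 buffer; beta-galactosidase complementation read by luminescence after 1 h at ambient temperature. Dopamine 57 uM final (EC100) as control.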
With `O=[N+]([O-])c1cc([N+](=O)[O-])c(Nc2nnnn2CCO)c([N+](=O)[O-])c1`, the activation is inactive: -7.17%.
The result for `CC1=C2N=C(C=C3N=C(C(C)=C4[N-][C@@](C)([C@@H]5N=C1[C@](C)(CCC(=O)NC[C@@H](C)OP(=O)([O-])O[C@H]1[C@@H](O)[C@@H](n6cnc7cc(C)c(C)cc76)O[C@@H]1CO)[C@H]5CC(N)=O)[C@@](C)(CC(N)=O)[C@@H]4CCC(N)=O)[C@@](C)(CC(N)=O)[C@@H]3CCC(N)=O)C(C)(C)[C@@H]2CCC(N)=O.[C-]#N.[Co+3]` reads inactive: -6.99%; that for `CN(C)C1(CNC(=O)c2ccc(S(C)(=O)=O)cc2)CCCCC1`, inactive: -4.82%.
As for `O=P1(Nc2ncccn2)COc2ccccc2OC1`, the figure is inactive: 0.0052%; as for `CN1CCCCC1COC(=O)C1(O)c2ccccc2CCc2ccccc21` (stereo unspecified), inactive: -0.671%; as for `COc1ccccc1OP(C)(=O)Nc1c(C)cccc1C` (stereo unspecified), inactive: -1.92%.
As for `NS(=O)(=O)c1cccc(NC(=O)COC(=O)C(O)(c2ccccc2)c2ccccc2)c1`, the figure is inactive: 0.0479%; as for `O=P1(Nc2ccc(Br)cn2)COc2ccccc2OC1`, inactive: -1.6%; as for `Cc1ccc(OCC(=O)OC2CN3CCC2CC3)cc1` (stereo unspecified), inactive: -3.36%.
As to `O=[As](O)(c1cccs1)c1cccs1`, the activation is inactive: -9.42%.
The result for `Nc1cccc([As](=O)(O)c2ccccc2)c1` reads inactive: -4.74%; that for `CP(=O)(Nc1ccc(SC(F)(F)F)cc1)Oc1ccccc1` (stereo unspecified), inactive: -6.14%; that for `CCCOc1ccc(NP(C)(=O)Oc2ccc(Cl)cc2)cc1` (stereo unspecified), inactive: -3.91%.
As for `CN(CCCl)Cc1cc(Cl)c(NC2=NCCN2)c(Cl)c1`, the figure is inactive: -3.87%; as for `CCOP(=O)(Nc1ccc(C)cn1)OCC`, inactive: 3.13%.
As for `Nc1ccc(CCCCOc2ccccc2)cc1.O=[N+]([O-])c1cc([N+](=O)[O-])c(O)c([N+](=O)[O-])c1`, the figure is inactive: -14.5%; as for `CCOP(=O)(NC(=NC(C)c1ccccc1)NC(C)c1ccccc1)OCC` (stereo unspecified), inactive: 6.81%.
As for `O=[N+]([O-])c1cc([N+](=O)[O-])c(-n2nnc3ccccc32)c([N+](=O)[O-])c1`, the activation was inactive: -7.45%.
The result for `O=C(O)C(O)c1ccc(N(CCCl)CCCl)cc1.c1ccncc1` (stereo unspecified) reads inactive: -3.08%.
The result for `CCC1=CC2Cc3nc4ccc(Cl)cc4c(N)c3C(C1)C2` (stereo unspecified) reads inactive: 3.24%; that for `O=P1(Nc2ccccn2)COc2ccccc2OC1`, inactive: 2.26%.
As for `CC(C)(C)C(=O)NC(Sc1ncccn1)C(Cl)(Cl)Cl` (stereo unspecified), the figure is inactive: -4.11%; as for `CN(Cc1cccnc1)C(=O)COc1ccc(Cl)c(Cl)c1.O=[N+]([O-])c1cc([N+](=O)[O-])c(O)c([N+](=O)[O-])c1`, inactive: -13.7%.
Turning to `Clc1n[nH]nc1-c1nn[nH][15n]1`, the activation is inactive: -1.88%.
In the case of `O=P1(N(CCCl)CCCl)NCCC(C(F)(F)F)O1` (stereo unspecified), the activation is inactive: -1.63%.
For the molecule `COc1ccccc1CNC(=O)COC(=O)C(O)(c1ccccc1)c1ccccc1`, the activation is inactive: -4.93%.
As for `CC1(CBr)Cn2c(nc3ccccc3c2=O)S1` (stereo unspecified), the figure is inactive: 0.424%.
As for `Cc1nc2ccc3ccccc3c2s1.O=[N+]([O-])c1cc([N+](=O)[O-])c(O)c([N+](=O)[O-])c1`, the figure is inactive: -10.2%; as for `CN(C(=O)Cc1ccc(Cl)c(Cl)c1)[C@@H]1CCCC[C@H]1N1CCCC1`, inactive: -6.55%; as for `CC(C)/C=N\N=C(\N)N[N+](=O)[O-]`, inactive: -3.74%.
As for `Cc1ccc(S(=O)(=O)N(CCCN)CCCc2c(C)nc(N)[nH]c2=O)cc1.O=[N+]([O-])c1cc([N+](=O)[O-])c(O)c([N+](=O)[O-])c1`, the figure is inactive: -16.5%.
